Test results published in patent US8124349B2, “Toll-like receptor assays” (University of Massachusetts, priority 2003, dated 2012).

Amino acid sequences for entries named in this document (tags omitted). Residues count along the entry.
UniProt O00206, 24-839: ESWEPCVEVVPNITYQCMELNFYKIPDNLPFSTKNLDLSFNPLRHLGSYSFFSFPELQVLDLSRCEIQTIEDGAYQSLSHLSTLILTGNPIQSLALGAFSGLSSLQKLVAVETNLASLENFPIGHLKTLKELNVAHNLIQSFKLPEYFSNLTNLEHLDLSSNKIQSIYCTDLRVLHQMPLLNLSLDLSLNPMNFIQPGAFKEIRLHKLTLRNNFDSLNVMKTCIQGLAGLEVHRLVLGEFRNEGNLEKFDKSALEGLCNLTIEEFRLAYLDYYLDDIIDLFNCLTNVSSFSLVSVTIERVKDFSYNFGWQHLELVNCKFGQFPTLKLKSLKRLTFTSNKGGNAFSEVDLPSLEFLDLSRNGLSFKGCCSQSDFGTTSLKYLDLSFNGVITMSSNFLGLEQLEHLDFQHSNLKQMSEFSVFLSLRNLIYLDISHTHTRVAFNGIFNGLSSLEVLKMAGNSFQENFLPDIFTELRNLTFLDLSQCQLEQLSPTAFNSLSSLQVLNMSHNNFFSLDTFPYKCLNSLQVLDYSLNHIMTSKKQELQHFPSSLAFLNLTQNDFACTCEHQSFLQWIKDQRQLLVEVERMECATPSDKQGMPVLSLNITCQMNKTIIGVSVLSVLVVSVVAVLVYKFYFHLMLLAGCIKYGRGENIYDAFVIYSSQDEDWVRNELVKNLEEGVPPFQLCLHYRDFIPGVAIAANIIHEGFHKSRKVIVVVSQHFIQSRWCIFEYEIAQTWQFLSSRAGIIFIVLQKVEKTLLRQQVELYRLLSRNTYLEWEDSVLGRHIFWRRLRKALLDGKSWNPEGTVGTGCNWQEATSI
UniProt Q9Y6Y9, 19-160: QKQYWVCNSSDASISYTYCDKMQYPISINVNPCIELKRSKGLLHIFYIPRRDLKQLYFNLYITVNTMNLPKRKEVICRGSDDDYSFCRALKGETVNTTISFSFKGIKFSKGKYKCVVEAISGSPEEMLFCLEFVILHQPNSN

What was measured:
[1] = target: TLR4^GFP (Homo sapiens, UniProt O00206+Q9Y6Y9); conditions: biotinylated LPS 1 mg/ml, FIG. 9 top panel
[2] = target: MD-2 (Homo sapiens, UniProt Q9Y6Y9); conditions: supernatants of the same cells; FIG. 9 lower panel

**Q.** `CCCCCC/C=C\CCCCCCCCCC(=O)N[C@H]1[C@H](OC[C@H]2O[C@H](OP(=O)(O)O)[C@H](NC(=O)CC(=O)CCCCCCCCCCC)[C@@H](OCCCCCCCCCC)[C@@H]2O)O[C@H](COC)[C@@H](OP(=O)(O)O)[C@@H]1OCC[C@@H](CCCCCCC)OC` [B1287] was tested. Which “Competitor concentration that completely blocks the TLR4-LPS interaction, relative to LPS” value [1] did it give?
**A.** The value was “roughly 10 fold the LPS (in weight)”.

**Q.** What about the “Prevention of the interaction of TLR4 and biotinylated LPS” value ([1]; one hour) of the same compound?
**A.** The value was “could efficiently prevent the interaction of TLR4 and LPS”.

**Q.** What about the “Prevention of the interaction of LPS with MD-2” value [2] of the same compound?
**A.** Its value is “could efficiently prevent the interaction of LPS with MD-2”.
